Screen size: about 350,000 compounds; about 450 (0.13%) were called active. This is one part of a sample in which actives are shown more often than they occur.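 Rule for the calls: active = replicate mean at a twofold rise or more (about +100% in these data); inactive = the rest.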

A short description of this assay: UUG initiation codon usage in yeast – whole organism, S. cerevisiae, single point, plate reader, primary screen (AID 602363).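 Note: firefly luciferase made from a UUG start codon reports start codon fidelity.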 Conditions: S. cerevisiae UUG-firefly luciferase reporter, luminescence/redox ratio; at 18.7 µM; active compounds read high.
Take `O=C(C[C@H]1C[C@H]2c3cc(NC(=O)NC4CCCC4)ccc3O[C@H]2[C@H](CO)O1)NCCc1ccccc1`: the activity score was -18.1% (inactive).

`C[C@@H]1CN([C@H](C)CO)C(=O)c2cc(NS(=O)(=O)c3ccccc3)ccc2O[C@@H](C)CCCCO[C@H]1CN(C)C(=O)C1CCCCC1`: the activity score is 18.3% (inactive). For `CCC(=O)N1[C@@H](CO)[C@H](c2ccc(-c3cccc(F)c3)cc2)[C@@H]1CNC(C)=O` the value was 2% (inactive). With `C[C@H](CO)N1C[C@H](C)[C@@H](CN(C)S(=O)(=O)c2cccs2)Oc2ccc(NC(=O)Nc3cccc4ccccc34)cc2CC1=O` the figure was -2.1% (inactive); with `C[C@@H]1CN([C@H](C)CO)C(=O)c2cccc(NC(=O)Nc3ccccc3)c2O[C@H]1CN(C)S(C)(=O)=O`, 1.91% (inactive); with `C[C@@H]1CN([C@H](C)CO)C(=O)c2cc(NS(=O)(=O)c3ccc(F)cc3)ccc2O[C@H]1CN(C)C(=O)Nc1cccc2ccccc12`, -5.16% (inactive). With `CCC(=O)N(C)C[C@H]1Oc2cc(C#CC3CCCC3)ccc2S(=O)(=O)N([C@H](C)CO)C[C@@H]1C` the figure was -3% (inactive); with `COc1ccccc1-c1cn(CC[C@H]2CC[C@@H](NC(=O)CCN3CCCCC3)[C@@H](CO)O2)nn1`, 7.11% (inactive); with `O=C(Cc1ccccn1)NCC[C@H]1CC[C@H](NS(=O)(=O)c2ccccc2)[C@@H](CO)O1`, 7.13% (inactive). With `COc1cccc(S(=O)(=O)Nc2ccc3c(c2)C(=O)N(C)C[C@@H](OC)[C@H](C)CN(C(=O)Cc2cccnc2)[C@H](C)CO3)c1`, the activity score is -4.59% (inactive). Turning to `CCOc1cc(/C=C2\SC(N3CCCCC3)=NC2=O)ccc1O`, the activity score was 6.38% (inactive). For `O=C1N=C(N2CCc3ccccc3C2)S/C1=C\c1ccc(O)cc1` the value was 376% (active); for `O=C1N=C(N2CCOCC2)S/C1=C\C=C/c1ccccc1`, -1.22% (inactive); for `Cc1cc(C)c(S(=O)(=O)Nc2c(C)n(C)n(-c3ccccc3)c2=O)cc1[N+](=O)[O-]`, 3.79% (inactive). For `Cc1c(NC(=O)c2c([N+](=O)[O-])cnn2C)c(=O)n(-c2ccccc2)n1C` the value was -20.3% (inactive); for `Cc1c(Nc2cc(N3CCCC(C)C3)c3nonc3c2[N+](=O)[O-])c(=O)n(-c2ccccc2)n1C` (configuration not stated), 273% (active). With `O=C(NC1CCCCC1)C1CCCN(S(=O)(=O)c2cccs2)C1` (configuration not stated) the figure was -10.8% (inactive); with `CCc1ccc(N(C(=O)c2csnn2)C(C(=O)NC2CCCCC2)c2ccncc2)cc1` (configuration not stated), -16.9% (inactive); with `CC1CCCN(S(=O)(=O)c2ccc(N(C(=O)c3cnccn3)C(C(=O)NC3CCCCC3)c3cccs3)cc2)C1` (configuration not stated), 130% (active). For `O=C(C[C@@H]1C[C@H]2c3cc(NC(=O)NC4CCCCC4)ccc3O[C@H]2[C@H](CO)O1)NCc1ccncc1`, the activity score is 1.45% (inactive).

`CCCN1C[C@H](C)[C@H](OC)CN(C)C(=O)c2cc(NC(=O)C3CCOCC3)ccc2OC[C@@H]1C`: the activity score is 7.64% (inactive).

In the case of `C[C@H](CO)N1C[C@H](C)[C@@H](CN(C)Cc2ccc(Cl)c(Cl)c2)Oc2ccc(NC(=O)Nc3ccc(C(F)(F)F)cc3)cc2CC1=O`, the activity score is -6.41% (inactive). With `COc1ccc(S(=O)(=O)N(C)C[C@@H]2OCCCC[C@@H](C)Oc3ccc(NC(=O)c4ccccc4)cc3C(=O)N([C@@H](C)CO)C[C@H]2C)cc1` the figure was -7.34% (inactive); with `CO[C@H]1CN(C)C(=O)c2cc(NC(=O)Nc3cccc(F)c3)ccc2OC[C@H](C)N(C(C)=O)C[C@H]1C`, 2.41% (inactive); with `CCCc1cn(CC[C@@H]2CC[C@@H](NS(=O)(=O)c3ccccc3Cl)[C@@H](CO)O2)nn1`, -13.1% (inactive). For `CN1C[C@@H]2[C@H](c3ccccc31)[C@@H](CO)N2C(=O)Nc1ccccc1` the value was -3.49% (inactive); for `C[C@@H]1CN([C@H](C)CO)C(=O)c2cc(NC(=O)c3ccncc3)ccc2O[C@H]1CN(C)C(=O)Nc1ccc(C(F)(F)F)cc1`, -1.07% (inactive).

For the compound `CCC(=O)N1C[C@@H](C)[C@H](OC)CN(C)C(=O)c2ccc(NC(=O)Nc3ccccc3)cc2OC[C@@H]1C`, the activity score was 40.8% (inactive). Turning to `C[C@H]1CCCCO[C@H](CN(C)C(=O)NC2CCCCC2)[C@@H](C)CN([C@@H](C)CO)C(=O)c2cc(NC(=O)Nc3ccc4c(c3)OCO4)ccc2O1`, the activity score is -4.52% (inactive).

Take `C[C@H]1CCCCO[C@H](CN(C)Cc2ccc(C(F)(F)F)cc2)[C@@H](C)CN([C@@H](C)CO)C(=O)c2cc(NC(=O)C3CCCCC3)ccc2O1`: the activity score was 13.7% (inactive). For `CCc1ccc(CN2C(=O)c3ccccc3C2C(=O)NCC2CCCO2)cc1` (configuration not stated) the value was -17.4% (inactive); for `O=C(Nc1ccc(Cl)cc1)C1c2cccc[n+]2CC(=O)N1Cc1ccc2c(c1)OCO2` (configuration not stated), -9.17% (inactive). For the compound `CC1CCC(NC(=O)C2c3ccccc3C(=O)N2Cc2ccc3c(c2)OCO3)CC1` (configuration not stated), the activity score is 619% (active). Consider `COc1ccc(S(=O)(=O)Nc2ccc3c(c2)CC(=O)N([C@H](C)CO)C[C@@H](C)[C@H](CN(C)S(=O)(=O)c2c(C)noc2C)O3)cc1`, for which the activity score was -0.184% (inactive).

On to `N#C[C@@H]1[C@H](c2ccc(C#Cc3cccc(F)c3)cc2)[C@@H](CO)N1C(=O)C1CCCC1`, for which the activity score is -38.1% (inactive). Take `CN(C)CC(=O)N[C@@H]1CC[C@H](CC(=O)NCc2ccc(Cl)cc2)O[C@H]1CO`: the activity score was -7.2% (inactive). For `O=C(NCC[C@@H]1CC[C@H](NC(=O)C2CC2)[C@@H](CO)O1)c1cc(Cl)cc(Cl)c1` the value was 4.52% (inactive); for `C[C@@H]1CN([C@H](C)CO)C(=O)c2cc(-c3ccc(C#N)cc3)cnc2O[C@@H]1CN(C)CC1CC1`, -0.028% (inactive). As for `CO[C@H]1CN(C)C(=O)c2cc(NS(C)(=O)=O)ccc2OC[C@@H](C)N(Cc2ccccc2)C[C@@H]1C`, the activity score is 1.29% (inactive). For `CCOC(=O)c1ccccc1NC(=O)COC(=O)CCC(=O)N1CCOCC1`, the activity score is 19.5% (inactive).

Consider `CC(=O)Nc1ccccc1OC(=O)N1CCOCC1`, for which the activity score was -18.2% (inactive). For `CC(=O)Nc1ccccc1-c1cn(CC(=O)N2CCOCC2)nn1` the value was 127% (active); for `C[C@H](CO)N1C[C@H](C)[C@H](CN(C)Cc2ccc(Cl)c(Cl)c2)OCCCC[C@H](C)Oc2ccc(NC(=O)NC3CCCCC3)cc2C1=O`, -1.13% (inactive); for `CCc1cccc(C)c1N(C(=O)Cn1c(CO)nc2ccccc21)C(C)COC` (configuration not stated), 593% (active). For `CCOCN(C(=O)Cn1c(C(C)O)nc2ccccc21)c1c(C)cccc1CC` (configuration not stated) the value was -13.4% (inactive); for `Cc1ccccc1OC(=O)Cn1c(C(F)(F)F)nc2ccccc21`, -13% (inactive).

For the compound `COc1ccc2c(C)cc(SCC(=O)NCC3CCCO3)nc2c1` (configuration not stated), the activity score is -4.78% (inactive). Turning to `O=C(COc1ccc(Cl)cc1)NCc1nnc(SCC(=O)NCC2CCCO2)o1` (configuration not stated), the activity score was 199% (active). On to `COc1cc(C(=O)NCc2nnc(SCC(=O)c3ccc(Cl)cc3)o2)cc(OC)c1OC`, for which the activity score was -3.27% (inactive). Turning to `O=S(=O)(N[C@@H]1CC[C@@H](CCn2cc(-c3ccccn3)nn2)O[C@@H]1CO)c1cccc(Cl)c1`, the activity score was -16.7% (inactive). For `C[C@@H]1CN([C@@H](C)CO)C(=O)c2cccc(NC(=O)Nc3ccc4c(c3)OCO4)c2O[C@@H]1CN(C)C(=O)Nc1ccc(F)cc1` the value was -5.75% (inactive); for `CS(=O)(=O)Nc1ccc2c(c1)[C@H]1C[C@@H](CC(=O)N3CCOCC3)O[C@@H](CO)[C@H]1O2`, -23.5% (inactive).

As to `C[C@H](CO)N1C[C@H](C)[C@@H](CN(C)S(C)(=O)=O)Oc2cc(C#CC3CC3)ccc2S1(=O)=O`, the activity score was 13.1% (inactive). For `O=C(NC(=S)Nc1ccccc1N1CCCCC1)c1ccc(F)cc1` the value was -15.2% (inactive); for `c1ccc(-n2cccc2)c(N2CCCCC2)c1`, 101% (active). For `O=C(Nc1ccccc1N1CCCC1)c1ccc2ccccc2c1` the value was -12.9% (inactive). As to `C[C@@H]1CCCCO[C@H](CN(C)Cc2ccccc2)[C@@H](C)CN([C@@H](C)CO)C(=O)c2cc(NC(=O)Nc3ccc(F)cc3)ccc2O1`, the activity score was 33.7% (inactive). With `C[C@H](CO)N1C[C@H](C)[C@@H](CN(C)C)Oc2c(NC(=O)Nc3ccc(F)cc3)cccc2C1=O` the figure was 17.5% (inactive); with `CC(C)C#Cc1ccc2c(c1)O[C@H](CN(C)Cc1ccccn1)[C@H](C)CN([C@H](C)CO)S2(=O)=O`, -7.68% (inactive); with `CO[C@H]1CN(C)C(=O)c2cc(NC(=O)C3CCCCC3)ccc2OC[C@H](C)N(C(=O)c2ccccc2)C[C@H]1C`, -6.56% (inactive). For `C[C@H](CO)N1C[C@H](C)[C@H](CN(C)S(=O)(=O)c2cn(C)cn2)Oc2c(NC(=O)C3CCOCC3)cccc2C1=O` the value was -12.8% (inactive). On to `COc1ccc(NC(=O)N(C)C[C@H]2OCCCC[C@@H](C)Oc3ccc(NC(=O)NC4CCCCC4)cc3C(=O)N([C@H](C)CO)C[C@H]2C)cc1`, for which the activity score was 21.6% (inactive). For `COc1ccc(NC(=O)N(C)C[C@H]2OCCCC[C@@H](C)Oc3ccc(NC(=O)NC4CCCCC4)cc3C(=O)N([C@@H](C)CO)C[C@H]2C)cc1` the value was 107% (active). For `COc1ccc(NC(=O)N(C)C[C@@H]2OCCCC[C@@H](C)Oc3ccc(NC(=O)NC4CCCCC4)cc3C(=O)N([C@H](C)CO)C[C@@H]2C)cc1` the value was 2.02% (inactive); for `C[C@@H]1CN([C@H](C)CO)C(=O)c2cc(C#CC3CCCC3)cnc2O[C@H]1CN(C)C(=O)C1CC1`, -6.27% (inactive). For `C[C@@H]1CN([C@H](C)CO)C(=O)Cc2cc(NS(=O)(=O)c3ccc(Cl)cc3)ccc2O[C@H]1CN(C)S(=O)(=O)c1cccs1`, the activity score was -8.01% (inactive).

For `O=C(Cc1ccncc1)NCC[C@@H]1CC[C@H](NC(=O)Nc2ccc(Cl)cc2)[C@@H](CO)O1`, the activity score is 34.2% (inactive).

(Values after PubChem BioAssay AID602363 (Broad Institute, 2012).)
